Experimental data: patent US6803371B2, “Purine inhibitors of protein kinases, G proteins and polymerases” (The Regents of the University of California, priority 1997, dated 2004)

Biological target: CDK2/cyclinE (Homo sapiens, UniProt P24941)
Test: CDK2/cyclinE kinase inhibition
Format: biochemical
Settings: read-out: IC50 (additional kinases) CDK2/cyclinE

IC50: 140 nM
SMILES: COc1ccc(CNc2nc(N[C@@H](CO)C(C)C)nc3c2ncn3C(C)C)cc1 [NG-75]
